Measurements: PubChem BioAssay AID624156 (Broad Institute, 2012)
The entries are a selection whose mix differs from that of the whole data set. Active and inactive are the calls of the source. No stated cut-off is given here; in the data, active means ROS induction above about 79% (passing the limit was not always enough); inconclusive means no clear call, values can overlap the other calls.

Experiment: ROS inducers in U2OS cancer cells, primary screen, cell-based, H2DCF-DA fluorescence (AID 624156);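 further: 0% = DMSO vehicle median and 100% = reference compound median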
Details: at 10 µM, hits give high values

SMILES | ROS induction (% of piperlongumine)
FC(F)(F)Oc1ccc(NC2CCNCC2)cc1 | inactive: -2.47%
CC(C)(C)OC(=O)N1CCC(Nc2ccc(OC(F)(F)F)cc2)CC1 | inactive: 8.07%
